# Test results from patent US7208314B2, “Compositions and methods for drug delivery using pH sensitive molecules” (priority 2002, dated 2007).
# Conditions: pH 5
# Experimental: The absorbance of the solution at 225 nm, which is the wavelength at which enol ethers absorb (Kresge, A. J.; Sagatys, D. S.; Chen, H. L. J. Am. Chem. Soc. 1977, 99, 7228) was measured over time.
# The absorbance of the solution at 225 nm was measured as a function of time.
substance,measurement,value
"glycolic acid ethoxylate(4 units) 4-tert-buty-1,4-cyclohexadiene ether",half-life of enol ether hydrolysis,40 min
